Protein sequences, listed by entry. Tags and fused reporters are not part of them. Lines headed by an entry give the natural chain unless they say otherwise; changes in a name come on top.
UniProt Q06187: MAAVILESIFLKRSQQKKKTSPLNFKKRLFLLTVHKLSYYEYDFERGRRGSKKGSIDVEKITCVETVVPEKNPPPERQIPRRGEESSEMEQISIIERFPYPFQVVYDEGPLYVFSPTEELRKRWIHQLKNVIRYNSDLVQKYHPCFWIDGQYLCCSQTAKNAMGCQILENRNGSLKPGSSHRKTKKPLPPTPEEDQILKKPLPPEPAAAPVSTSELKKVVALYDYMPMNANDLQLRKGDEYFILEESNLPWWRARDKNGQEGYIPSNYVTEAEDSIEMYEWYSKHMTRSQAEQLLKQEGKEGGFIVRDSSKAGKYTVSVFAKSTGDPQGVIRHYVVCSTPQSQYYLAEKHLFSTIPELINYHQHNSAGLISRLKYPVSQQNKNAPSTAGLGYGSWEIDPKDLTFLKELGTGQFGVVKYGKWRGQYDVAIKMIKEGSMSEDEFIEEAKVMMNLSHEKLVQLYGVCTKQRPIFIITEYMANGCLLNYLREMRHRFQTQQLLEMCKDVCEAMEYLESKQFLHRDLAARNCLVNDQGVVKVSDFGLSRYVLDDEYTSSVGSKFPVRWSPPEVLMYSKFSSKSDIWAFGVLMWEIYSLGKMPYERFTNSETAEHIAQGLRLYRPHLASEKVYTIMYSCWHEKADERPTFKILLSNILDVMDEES

In patent publication US20150139979A1, “METHODS OF TREATING A DISEASE OR DISORDER ASSOCIATED WITH BRUTON'S TYROSINE KINASE” (Celgene Avilomics Research, Inc., priority 2013, published 2015):

Tests used:
BTK [1] = biological target: T1, BTK (Homo sapiens, UniProt Q06187); experiment: Btk inhibition; type: biochemical; design: purchased Reaction Biology Corp
BTK [2] = biological target: T1, BTK; experiment: Inhibition of BTK and PLCγ2 phosphorylation in Ramos cells; type: cell-based; conditions: read-out: EC50, inhibition of phosphorylation of the auto-phosphorylation site on BTK (Tyr223)

Row | SMILES | IC50 (BTK [1]) [nM] | EC50 (BTK [2]) [nM]
1 | C=CC(=O)Nc1cccc(Nc2nc(Nc3ccc(OCCOC)cc3)ncc2F)c1.O=S(=O)(O)c1ccccc1 [Compound 1 besylate, N-(3-(5-fluoro-2-(4-(2-methoxyethoxyl)phenylamino)pyrimidin-4-ylamino)phenyl)acrylamide besylate] | < 0.5 | 
2 | C=CC(=O)Nc1cccc(Nc2nc(Nc3ccc(OCCOC)cc3)ncc2F)c1 [Compound 1, N-(3-(5-fluoro-2-(4-(2-methoxyethoxyl)phenylamino)pyrimidin-4-ylamino)phenyl)acrylamide] |  | 1 to 10
